Our source for the Ratio values is ChEMBL document CHEMBL3596167, “Branched -d-mannopyranosides: a new class of potent FimH antagonists” (Medchemcomm, 2014).

The chains behind the UniProt entries cited, without tags or fusion partners.
UniProt P08191, whole entry: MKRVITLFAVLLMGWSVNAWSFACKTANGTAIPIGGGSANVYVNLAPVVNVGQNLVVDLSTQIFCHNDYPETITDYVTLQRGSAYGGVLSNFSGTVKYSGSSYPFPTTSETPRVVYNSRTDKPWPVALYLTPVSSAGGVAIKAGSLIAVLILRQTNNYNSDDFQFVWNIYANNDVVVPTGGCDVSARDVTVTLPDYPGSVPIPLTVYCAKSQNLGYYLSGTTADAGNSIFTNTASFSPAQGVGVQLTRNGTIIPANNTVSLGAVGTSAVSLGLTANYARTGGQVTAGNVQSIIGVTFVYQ

For assay [1], the target named is Type 1 fimbrin D-mannose specific adhesin (Escherichia coli K-12) (UniProt P08191). Description: Inhibition of Escherichia coli FimH relative to methyl alpha-D-mannopyranoside.
Assay [2] shares this target. In words: Inhibition of Escherichia coli FimH relative to heptyl alpha-D-mannopyranoside.

In the case of `CCCCCCCO[C@H]1O[C@H](CO)[C@@H](O)[C@H](O)[C@@H]1O`, the figures for the Ratio in assay [1] and in assay [2] were 440 and 1, respectively.
